Data taken from patent US7935366B2 (priority 2006, dated 2011).
Only a part of the results on these compounds is given; other tests are left out.

What was measured:
[1] = system: rat bone marrow erythrocytes; assay: Micronuclei formation in rat bone marrow erythrocytes (geno-toxicity); type: in vivo; settings: FIG. 2
Text: […]. The geno-toxicity assessment of [CaK2Fe(CN)6] and Prussian Blue for the formation of micronuclei (i.e. part of parent nucleus, which is left behind in the cytoplasm as a daughter nuclei, due to damage to chromosomes during cell division). […] It has also been observed that five and ten times of this dose induces marginal increase in the formation of micronuclei.

[2] = Percent binding capacity of *Cs at different pH; type: physicochemical
DNA damage = assay: Alkaline comet assay; settings: FIG. 3
[3] = Whole body retention of ^137Cs, CKF vs Prussian Blue; type: in vivo

## Calcium Potassium Ferrocyanide
[1]; all the tested doses
  micronuclei formation, means±SE versus control: not significantly different from control
[1]; dose of 5 mg/100 g BW (equivalent to 3.5 g/d/70 Kg adult)
  geno-toxicity, micronuclei formation: did not induce any toxicity
[1]; five and ten times the dose of 5 mg/100 g BW
  geno-toxicity, micronuclei formation: marginal increase in the formation of micronuclei
[2]; FIG. 4, neutral pH
  binding with *Cs: firm binding
[2]; pH 2
  PERCENT BINDING CAPACITY of *Cs: 99 ± 0.9%
[2]; pH 3
  PERCENT BINDING CAPACITY of *Cs: 100 ± 0.9%
[2]; pH 5
  PERCENT BINDING CAPACITY of *Cs: 97 ± 0.9%
[2]; pH 6
  PERCENT BINDING CAPACITY of *Cs: 97 ± 0.9%
[2]; pH 7
  PERCENT BINDING CAPACITY of *Cs: 98 ± 0.9%
DNA damage
  DNA damage in alkaline comet assay: do not induce any apparent DNA damage
[3]; FIG. 1, whole body retention of *Cs, used solely
  effectiveness in *Cs decorporation relative to Prussian Blue: twice as effective as Prussian Blue
[3]; day 0
  WHOLE BODY RETENTION - ^137Cs: 100 percent administered dose
[3]; day 1
  WHOLE BODY RETENTION - ^137Cs: 55 ± 9 percent administered dose
[3]; day 4
  WHOLE BODY RETENTION - ^137Cs: 16 ± 7 percent administered dose
[3]; day 8
  WHOLE BODY RETENTION - ^137Cs: 10 ± 4 percent administered dose
[3]; day 12
  WHOLE BODY RETENTION - ^137Cs: 7 ± 3 percent administered dose
[3]; day 16
  WHOLE BODY RETENTION - ^137Cs: 5 ± 2 percent administered dose
[3]; day 20
  WHOLE BODY RETENTION - ^137Cs: 3 ± 1 percent administered dose
[3]; day 24
  WHOLE BODY RETENTION - ^137Cs: 3 ± 1 percent administered dose
[3]; day 28
  WHOLE BODY RETENTION - ^137Cs: 2 ± 1 percent administered dose
[3]; experimental animals
  speed of removing *Cs from in vivo system: considerably faster than Prussian blue
